Read-outs that look alike come from different tables or passages of the source.
Experiments:
Experiment in all cases: biochemical
A*0206 = A*0206 (Homo sapiens, UniProt P04439, D140Y/D185E/D98H/E176V/E277Q/F33Y/G131W/G231S/I119V/I121R/I166T/I218V/L300P/L318F/N151K/N90K/P208A/P217A/Q86G/Q94H/R138H/R169H/T345S); format: binding
DRB1*1101 = DRB1*1101 (Homo sapiens, UniProt P01903+P01911, A100R/A169T/A87E/I96F/K41T/L162R/M171V/P40S/Q125H/Q178H/Q39Y/Q99D/R42S/S66Y/T262R/V115G/W38E)
DRB1*0901 = DRB1*0901 (Homo sapiens, UniProt P01903+P01911, A100R/A103E/D57H/D86V/F55Y/F60I/F76Y/I96F/K127E/L162R/M171V/P40D/Q125H/Q99R/R33Q/R42F/S133A/S66N/T210M/V115G/W38K/Y107V/Y59G/Y89S)
DRB5*0101 = DRB5*0101 (Homo sapiens, UniProt P01903+Q30154); settings: […]
DRB4*0101 = DRB4*0101 (Homo sapiens, UniProt P01903+P13762, G164S)
A*2601 = A*2601 (Homo sapiens, UniProt P04439, A114D/A173T/A270S/D101N/D185E/E277Q/E87N/F33Y/G231S/I121R/I218V/K168Q/L180W/L300P/L318F/P208A/P217A/Q86R/Q94H/R138Q/S129P/T187R/T323A/T345S/V100A/V358M); format: binding
HLA-A1 (A*0101) = HLA-A1 (A*0101) (Homo sapiens, UniProt P04439, A114D/A174V/A182V/D101N/D185E/E176A/E190D/L180R/Q94H/R68K/S129P/T187R/V100A/V91M/W191G)
A*3002 [1] = target: T1, A*3002 (Homo sapiens, UniProt P04439, D101N/D140H/D185E/E176R/F33S/G80R/H175R/K168Q/Q94H/R138E/R41S/V100E); format: binding
A*3002 [2] = target: T1, A*3002; format: binding; remark: listed apart in the source

By UniProt entry, the sequences of proteins in these tests, tags left out. Residues count along the entry.
UniProt Q30154, 30-266: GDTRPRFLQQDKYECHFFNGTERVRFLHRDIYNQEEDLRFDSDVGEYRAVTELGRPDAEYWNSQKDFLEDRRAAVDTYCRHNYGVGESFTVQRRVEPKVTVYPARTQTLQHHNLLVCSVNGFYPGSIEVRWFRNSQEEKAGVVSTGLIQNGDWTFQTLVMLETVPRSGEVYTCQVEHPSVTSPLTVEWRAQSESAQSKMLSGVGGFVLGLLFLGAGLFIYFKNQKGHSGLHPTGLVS

Compound: CC[C@H](C)[C@H](NC(=O)[C@@H](NC(=O)[C@@H]1CCCN1C(=O)[C@H](CC(N)=O)NC(=O)[C@@H](NC(=O)CNC(=O)[C@H](Cc1ccccc1)NC(=O)[C@@H](NC(=O)[C@H](C)N)[C@@H](C)CC)C(C)C)[C@@H](C)O)C(=O)O [Peptide 86.0178]
- IC50 (A*0206): 421 nM

Compound: CC(C)C[C@H](NC(=O)[C@H](CC(C)C)NC(=O)[C@H](CCC(N)=O)NC(=O)[C@@H](N)CCC(N)=O)C(=O)N[C@@H](CCC(N)=O)C(=O)N[C@H](C(=O)N[C@@H](CCC(N)=O)C(=O)N[C@H](C(=O)N[C@@H](C)C(=O)N[C@@H](Cc1c[nH]cn1)C(=O)N[C@@H](C)C(=O)N[C@@H](CC(=O)O)C(=O)N[C@@H](CCCCN)C(=O)N[C@@H](CCC(N)=O)C(=O)N[C@H](C(=O)O)[C@@H](C)O)[C@@H](C)O)C(C)C [Peptide 89.0115]
- IC50 (DRB1*1101; Binding affinity DRB1 *1101): 9680 nM

Compound: CC[C@H](C)[C@H](NC(=O)[C@H](CCCCN)NC(=O)[C@@H]1CCCN1C(=O)[C@@H]1CCCN1C(=O)[C@H](CCC(N)=O)NC(=O)[C@@H](NC(=O)[C@H](CC(C)C)NC(=O)[C@H](CCSC)NC(=O)[C@H](CCC(N)=O)NC(=O)[C@H](CCC(=O)O)NC(=O)[C@@H](N)CCC(N)=O)[C@@H](C)CC)C(=O)N[C@@H](CCCNC(=N)N)C(=O)N[C@@H](CO)C(=O)N1CCC[C@H]1C(=O)N[C@@H](C)C(=O)O [Peptide 89.0124]
- IC50 (DRB1*1101): 18400 nM
- IC50 (DRB1*0901): 1470 nM

Compound: CC[C@H](C)[C@H](NC(=O)[C@@H](NC(=O)[C@H](CCC(N)=O)NC(=O)[C@@H](N)Cc1ccccc1)C(C)C)C(=O)N[C@@H](CCC(=O)O)C(=O)N[C@@H](CC(C)C)C(=O)N[C@@H](CCC(N)=O)C(=O)N[C@@H](CCSC)C(=O)N[C@@H](C)C(=O)N[C@@H](CC(C)C)C(=O)N[C@@H](CCC(=O)O)C(=O)N[C@H](C(=O)N[C@@H](CC(C)C)C(=O)N[C@@H](CO)C(=O)N[C@@H](CCCCN)C(=O)O)[C@@H](C)O [Peptide 89.0182]
- IC50 (DRB5*0101): 3510 nM

Compound: CSCC[C@H](NC(=O)[C@H](CC(=O)O)NC(=O)[C@H](CO)NC(=O)[C@@H](N)CCC(=O)O)C(=O)N[C@@H](C)C(=O)N[C@@H](Cc1ccccc1)C(=O)N[C@@H](CCC(=O)O)C(=O)N[C@@H](Cc1ccc(O)cc1)C(=O)N[C@@H](C)C(=O)N[C@@H](CC(C)C)C(=O)N[C@@H](CC(C)C)C(=O)N[C@@H](C)C(=O)N[C@@H](CC(=O)O)C(=O)N[C@@H](CO)C(=O)N[C@@H](CC(N)=O)C(=O)O [Peptide 90.0055]
- IC50 (DRB5*0101): 13100 nM

Compound: CC[C@H](C)[C@H](NC(=O)CNC(=O)[C@H](C)NC(=O)[C@H](Cc1ccccc1)NC(=O)[C@H](CO)NC(=O)[C@@H](NC(=O)[C@H](CCC(=O)O)NC(=O)[C@H](CC(=O)O)NC(=O)[C@H](CO)NC(=O)[C@H](CO)NC(=O)[C@H](Cc1ccccc1)NC(=O)[C@@H](NC(=O)[C@H](CO)NC(=O)[C@@H](N)CCC(=O)O)C(C)C)[C@@H](C)CC)C(=O)N[C@H](C(=O)O)C(C)C [Peptide 90.0195]
- IC50 (DRB4*0101): 1320 nM

Compound: CC[C@H](C)[C@H](NC(=O)[C@H](C)NC(=O)[C@H](CC(N)=O)NC(=O)[C@H](CCC(=O)O)NC(=O)[C@H](CC(C)C)NC(=O)[C@H](CCCNC(=N)N)NC(=O)[C@@H](NC(=O)[C@H](CC(C)C)NC(=O)[C@H](CCC(N)=O)NC(=O)[C@@H](N)Cc1c[nH]c2ccccc12)[C@@H](C)CC)C(=O)N[C@@H](CC(C)C)C(=O)N[C@@H](Cc1ccccc1)C(=O)N[C@H](C(=O)N[C@@H](C)C(=O)N[C@@H](CCCNC(=N)N)C(=O)O)[C@@H](C)O [Peptide 90.0211]
- IC50 (DRB1*1101; Binding affinity DRB1 *1101): 269 nM

Compound: CC[C@H](C)[C@H](NC(=O)[C@H](CO)NC(=O)[C@H](CC(=O)O)NC(=O)[C@H](Cc1c[nH]c2ccccc12)NC(=O)[C@@H](NC(=O)[C@@H](NC(=O)[C@H](Cc1ccc(O)cc1)NC(=O)[C@H](CC(N)=O)NC(=O)[C@@H](N)CCSC)C(C)C)C(C)C)C(=O)N[C@@H](Cc1ccc(O)cc1)C(=O)N[C@@H](Cc1ccc(O)cc1)C(=O)N[C@H](C(=O)N[C@H](C(=O)N[C@@H](CCC(=O)O)C(=O)N[C@H](C(=O)O)[C@@H](C)O)[C@@H](C)O)[C@@H](C)CC [Peptide 90.0214]
- IC50 (DRB4*0101): 769 nM

Compound: CC[C@H](C)[C@H](N)C(=O)N[C@H](C(=O)N[C@@H](Cc1c[nH]cn1)C(=O)N[C@@H](CC(C)C)C(=O)N[C@@H](CCCCN)C(=O)NCC(=O)N[C@@H](CC(=O)O)C(=O)N1CCC[C@H]1C(=O)N[C@@H](CC(N)=O)C(=O)N[C@@H](CO)C(=O)N[C@@H](CC(C)C)C(=O)N[C@@H](CCCCN)C(=O)N[C@@H](CS)C(=O)N[C@@H](CC(C)C)C(=O)N[C@@H](CCCNC(=N)N)C(=O)O)C(C)C [Peptide 90.0255]
- IC50 (DRB1*1101; Binding affinity DRB1 *1101): 12100 nM

Compound: CC(C)C[C@H](NC(=O)[C@H](CO)NC(=O)[C@@H](NC(=O)[C@H](CC(=O)O)NC(=O)[C@H](CCC(N)=O)NC(=O)[C@@H](NC(=O)[C@@H](N)[C@@H](C)O)C(C)C)C(C)C)C(=O)N[C@@H](CCC(=O)O)C(=O)N[C@H](C(=O)O)C(C)C [Peptide 1593.55]
- IC50 (A*0206): 194 nM

Compound: CC[C@H](C)[C@H](NC(=O)[C@H](CCC(N)=O)NC(=O)[C@@H](NC(=O)[C@H](CO)NC(=O)[C@H](CC(N)=O)NC(=O)[C@@H]1CCCN1C(=O)[C@@H](NC(=O)[C@@H](NC(=O)[C@@H](NC(=O)[C@@H](N)C(C)C)C(C)C)[C@@H](C)O)[C@@H](C)CC)C(C)C)C(=O)N[C@@H](CO)C(=O)N[C@H](C(=O)NCC(=O)N[C@@H](Cc1ccc(O)cc1)C(=O)N[C@@H](CCSC)C(=O)O)C(C)C [Peptide 1601.41]
- IC50 (DRB4*0101): 294 nM

Compound: CC[C@H](C)[C@H](NC(=O)CNC(=O)[C@H](C)NC(=O)[C@H](Cc1ccccc1)NC(=O)[C@H](CO)NC(=O)[C@@H](NC(=O)[C@H](CCC(=O)O)NC(=O)[C@H](CC(=O)O)NC(=O)[C@@H](N)CO)[C@@H](C)CC)C(=O)N[C@H](C(=O)N[C@H](C(=O)N[C@@H](CCCCN)C(=O)N[C@@H](CC(C)C)C(=O)N1CCC[C@H]1C(=O)N[C@H](C(=O)O)[C@@H](C)O)[C@@H](C)O)C(C)C [Peptide 1601.45]
- IC50 (DRB4*0101): 14200 nM

Compound: CSCC[C@H](NC(=O)[C@@H](NC(=O)[C@@H](NC(=O)[C@@H]1CCCN1C(=O)[C@H](CC(C)C)NC(=O)[C@H](CC(=O)O)NC(=O)[C@H](CO)NC(=O)[C@H](C)N)[C@@H](C)O)[C@@H](C)O)C(=O)N[C@@H](CC(N)=O)C(=O)N[C@@H](Cc1ccc(O)cc1)C(=O)O [Peptide 1610.02]
- IC50 (A*2601): > 20000 nM
- IC50 (HLA-A1 (A*0101)): 32 nM
- IC50 (A*3002 [1]): 791 nM

Compound: CC(C)C[C@H](N)C(=O)N[C@H](C(=O)N[C@@H](CC(=O)O)C(=O)N[C@@H](Cc1c[nH]cn1)C(=O)N[C@@H](Cc1ccccc1)C(=O)N[C@H](C(=O)N[C@@H](CCC(N)=O)C(=O)N[C@@H](CCC(=O)O)C(=O)N[C@@H](CC(N)=O)C(=O)N[C@@H](Cc1ccc(O)cc1)C(=O)O)C(C)C)[C@@H](C)O [Peptide 1610.03]
- IC50 (A*2601): 3760 nM
- IC50 (HLA-A1 (A*0101)): 5.8 nM
- IC50 (A*3002 [1]): 1830 nM

Compound: CC[C@H](C)[C@H](NC(=O)[C@@H]1CCCN1C(=O)[C@@H](NC(=O)[C@@H]1CCCN1C(=O)[C@H](CC(=O)O)NC(=O)[C@H](Cc1ccccc1)NC(=O)[C@@H](N)CO)[C@@H](C)CC)C(=O)N[C@@H](Cc1c[nH]cn1)C(=O)N[C@@H](Cc1ccc(O)cc1)C(=O)O [Peptide 9015.0002]
- IC50 (A*3002 [2]): 183 nM

Compound: CC[C@H](C)[C@H](NC(=O)[C@H](Cc1ccc(O)cc1)NC(=O)[C@@H](NC(=O)[C@@H](NC(=O)[C@@H](NC(=O)[C@H](Cc1c[nH]c2ccccc12)NC(=O)[C@@H](N)C(C)C)[C@@H](C)O)[C@@H](C)CC)C(C)C)C(=O)N[C@@H](CCC(=O)O)C(=O)N[C@@H](Cc1ccc(O)cc1)C(=O)O [Peptide 9015.0089]
- IC50 (A*3002 [2]): 198 nM

Compound: CC[C@H](C)[C@H](N)C(=O)N[C@H](C(=O)N[C@@H](CCCCN)C(=O)N[C@H](C(=O)NCC(=O)N1CCC[C@H]1C(=O)N[C@@H](CCC(=O)O)C(=O)N[C@@H](CC(N)=O)C(=O)N1CCC[C@H]1C(=O)N[C@@H](Cc1ccc(O)cc1)C(=O)O)[C@@H](C)CC)[C@@H](C)O [Peptide 9015.0162]
- IC50 (A*3002 [2]): 382 nM

Compound: CC[C@H](C)[C@H](NC(=O)[C@H](CC(C)C)NC(=O)[C@H](CCC(N)=O)NC(=O)[C@H](CC(=O)O)NC(=O)[C@H](C)NC(=O)[C@H](CC(C)C)NC(=O)[C@@H](N)CC(=O)O)C(=O)N[C@@H](Cc1c[nH]cn1)C(=O)N[C@@H](CC(C)C)C(=O)N[C@@H](Cc1ccc(O)cc1)C(=O)O [Peptide 9015.0184]
- IC50 (A*3002 [2]): 285 nM
